Several values for one entry are separate records, joined by “and”; a condition that tells them apart may be missing. Equal values may be shown once. Read-outs that look alike come from different tables or passages of the source.
Experiments:
[1] = biological target: C. elegans (N2) complex I (NADH:ubiquinone oxidoreductase) (Caenorhabditis elegans, UniProt P24887+Q93873+Q94360); assay: biochemical; assay type: biochemical; settings: single replicate; for in vitro complex I activity relative to solvent control, individual replicate: wild-type C. elegans; for percent (%) in vitro complex I activity relative to solvent control: wild-type C. elegans mitochondria
[2] = biological target: M. musculus (heart) complex I (Mus musculus, UniProt P03888+Q91WD5+Q9DC70); assay type: biochemical; settings: for M. musculus: C. elegans IC50 Fold Change: heart mitochondria; for percent (%) in vitro complex I activity relative to solvent control: M. musculus (heart) mitochondria, single replicate
[3] = biological target: B. taurus (heart) complex I (Bos taurus, UniProt P03887+P17694+P42026); assay type: biochemical; settings: for B. taurus: C. elegans IC50 Fold Change (Complex I IC50 ~Fold Change): heart mitochondria; for percent (%) in vitro complex I activity relative to solvent control: B. taurus (heart) mitochondria, single replicate
L1 wild-type C. elegans = settings: […]; for KCN survival assay value relative to DMSO control, Mean: mean of replicates; for KCN survival assay value relative to DMSO control, individual replicate: single replicate

Chains of the proteins cited; added tags and fusions are not shown. Lines headed by an entry give the natural chain unless they say otherwise; changes in a name come on top. Residues count along the entry.
UniProt P24887: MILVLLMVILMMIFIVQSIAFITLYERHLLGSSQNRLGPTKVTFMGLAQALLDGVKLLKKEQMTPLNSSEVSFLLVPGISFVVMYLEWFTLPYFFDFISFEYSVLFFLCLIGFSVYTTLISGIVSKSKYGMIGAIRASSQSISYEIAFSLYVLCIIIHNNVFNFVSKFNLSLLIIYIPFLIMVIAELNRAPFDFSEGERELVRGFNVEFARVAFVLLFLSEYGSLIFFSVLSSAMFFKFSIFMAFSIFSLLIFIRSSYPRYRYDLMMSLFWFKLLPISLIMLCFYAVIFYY
UniProt Q93873, 31-482: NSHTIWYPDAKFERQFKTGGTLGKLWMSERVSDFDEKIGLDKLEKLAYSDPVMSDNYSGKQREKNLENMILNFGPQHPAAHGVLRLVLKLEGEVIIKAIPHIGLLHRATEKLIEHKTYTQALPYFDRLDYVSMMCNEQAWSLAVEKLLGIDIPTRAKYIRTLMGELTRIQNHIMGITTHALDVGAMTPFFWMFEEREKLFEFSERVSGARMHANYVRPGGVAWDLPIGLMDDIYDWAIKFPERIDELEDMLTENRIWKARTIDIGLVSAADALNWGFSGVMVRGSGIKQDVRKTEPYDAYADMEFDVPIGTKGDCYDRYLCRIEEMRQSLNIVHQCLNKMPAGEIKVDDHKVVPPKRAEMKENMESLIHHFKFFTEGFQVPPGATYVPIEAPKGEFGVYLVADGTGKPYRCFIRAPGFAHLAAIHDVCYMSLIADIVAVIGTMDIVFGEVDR
UniProt Q94360, 17-199: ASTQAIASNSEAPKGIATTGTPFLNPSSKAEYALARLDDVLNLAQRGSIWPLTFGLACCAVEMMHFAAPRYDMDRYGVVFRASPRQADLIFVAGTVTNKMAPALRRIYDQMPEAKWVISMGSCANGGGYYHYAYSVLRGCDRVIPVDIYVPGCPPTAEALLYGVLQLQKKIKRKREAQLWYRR
UniProt P03888: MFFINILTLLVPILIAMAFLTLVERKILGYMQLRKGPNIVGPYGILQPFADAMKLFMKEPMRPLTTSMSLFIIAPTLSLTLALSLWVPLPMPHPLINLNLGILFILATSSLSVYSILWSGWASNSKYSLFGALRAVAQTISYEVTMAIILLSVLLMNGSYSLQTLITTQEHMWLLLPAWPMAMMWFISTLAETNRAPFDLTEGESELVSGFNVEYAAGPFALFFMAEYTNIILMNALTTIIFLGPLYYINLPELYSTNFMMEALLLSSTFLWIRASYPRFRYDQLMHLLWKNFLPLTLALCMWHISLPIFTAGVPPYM
UniProt Q91WD5, 34-463: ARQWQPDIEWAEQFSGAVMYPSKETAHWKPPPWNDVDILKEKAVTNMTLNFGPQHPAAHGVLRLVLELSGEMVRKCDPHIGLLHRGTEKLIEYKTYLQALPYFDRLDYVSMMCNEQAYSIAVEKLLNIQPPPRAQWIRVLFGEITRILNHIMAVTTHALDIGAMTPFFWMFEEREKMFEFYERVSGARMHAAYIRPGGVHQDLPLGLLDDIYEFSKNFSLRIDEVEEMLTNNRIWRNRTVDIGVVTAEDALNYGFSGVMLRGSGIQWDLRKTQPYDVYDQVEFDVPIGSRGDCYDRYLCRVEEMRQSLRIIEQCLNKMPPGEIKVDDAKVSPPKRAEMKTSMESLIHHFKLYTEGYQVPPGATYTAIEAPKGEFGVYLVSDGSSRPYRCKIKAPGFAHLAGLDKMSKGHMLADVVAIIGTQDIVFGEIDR
UniProt Q9DC70, 36-224: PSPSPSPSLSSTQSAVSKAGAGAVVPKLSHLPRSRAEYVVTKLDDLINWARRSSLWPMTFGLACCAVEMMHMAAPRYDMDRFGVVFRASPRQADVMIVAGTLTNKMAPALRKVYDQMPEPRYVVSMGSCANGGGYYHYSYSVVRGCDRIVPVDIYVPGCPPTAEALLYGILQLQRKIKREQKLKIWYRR
UniProt P03887, whole entry: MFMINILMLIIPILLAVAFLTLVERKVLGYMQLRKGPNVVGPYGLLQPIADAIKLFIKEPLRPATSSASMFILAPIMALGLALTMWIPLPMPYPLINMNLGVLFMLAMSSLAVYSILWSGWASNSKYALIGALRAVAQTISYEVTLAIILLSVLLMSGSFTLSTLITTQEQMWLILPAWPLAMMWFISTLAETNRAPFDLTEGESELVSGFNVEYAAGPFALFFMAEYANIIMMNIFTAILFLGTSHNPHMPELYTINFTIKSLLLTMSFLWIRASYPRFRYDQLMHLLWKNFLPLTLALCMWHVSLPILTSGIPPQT
UniProt P17694, 34-463: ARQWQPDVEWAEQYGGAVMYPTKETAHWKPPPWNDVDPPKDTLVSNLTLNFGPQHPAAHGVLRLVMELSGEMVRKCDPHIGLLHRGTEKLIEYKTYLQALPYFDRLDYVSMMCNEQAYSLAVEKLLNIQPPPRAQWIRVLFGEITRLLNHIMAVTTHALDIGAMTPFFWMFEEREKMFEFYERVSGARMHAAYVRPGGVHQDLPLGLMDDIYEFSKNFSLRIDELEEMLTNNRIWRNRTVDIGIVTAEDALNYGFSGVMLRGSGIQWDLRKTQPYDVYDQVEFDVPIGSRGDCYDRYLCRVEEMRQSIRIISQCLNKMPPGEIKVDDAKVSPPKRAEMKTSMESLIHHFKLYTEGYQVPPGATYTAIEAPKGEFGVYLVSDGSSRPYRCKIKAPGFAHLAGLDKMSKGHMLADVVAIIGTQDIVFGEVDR
UniProt P42026, 38-216: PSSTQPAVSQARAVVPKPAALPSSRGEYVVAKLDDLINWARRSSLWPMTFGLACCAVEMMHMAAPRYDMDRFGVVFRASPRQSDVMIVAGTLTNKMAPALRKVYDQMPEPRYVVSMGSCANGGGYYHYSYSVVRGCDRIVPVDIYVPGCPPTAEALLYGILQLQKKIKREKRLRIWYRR

## CC(C)(C)c1ccc(CCOc2ncnc3ccccc23)cc1 [Fenazaquin, reference compound]
[1]; dose 0.0001 µM
  in vitro complex I activity relative to solvent control, individual replicate: 87.816% and 89.750% and 92.618% and 90.086% and 96.070% and 109.239%
[1]; dose 0.0005 µM
  in vitro complex I activity relative to solvent control, individual replicate: 89.701% and 81.002% and 81.804% and 90.491% and 91.484% and 103.606%
[1]; dose 0.001 µM
  in vitro complex I activity relative to solvent control, individual replicate: 78.976% and 77.909% and 82.564% and 82.306% and 93.040%
[1]; dose 0.0025 µM
  in vitro complex I activity relative to solvent control, individual replicate: 58.940% and 63.076% and 61.159% and 62.658% and 70.496%
[1]; dose 0.005 µM
  in vitro complex I activity relative to solvent control, individual replicate: 42.842% and 44.309% and 45.411% and 42.722% and 34.893%
[1]; dose 0.013 µM
  in vitro complex I activity relative to solvent control, individual replicate: 23.550% and 27.353% and 27.574% and 18.988% and 20.774%
[1]; dose 0.025 µM
  in vitro complex I activity relative to solvent control, individual replicate: 16.646% and 10.417% and 16.067% and 16.398% and 5.080% and 10.303%
[1]; dose 0.063 µM
  in vitro complex I activity relative to solvent control, individual replicate: 5.065% and 2.518% and 8.644% and 7.543% and 1.518% and 7.151%
[1]; dose 0.125 µM
  in vitro complex I activity relative to solvent control, individual replicate: 0.729% and 0.000% and 4.279% and 4.891% and 2.074% and 3.228%
[1]; dose 0.313 µM
  in vitro complex I activity relative to solvent control, individual replicate: 0.000% and 4.527% and 1.352% and 0.772% and 3.633%
[1]; dose 0.625 µM
  in vitro complex I activity relative to solvent control, individual replicate: 5.097% and 1.288% and 0.000% and 2.023% and 4.656%
[1]; dose 1.5 µM
  in vitro complex I activity relative to solvent control, individual replicate: 2.783% and 1.576% and 0.000% and 3.503% and 3.624%
[1]; dose 3 µM
  in vitro complex I activity relative to solvent control, individual replicate: 2.117% and 0.219% and 0.000% and 1.465% and 5.101%
[1]; dose 7.5 µM
  in vitro complex I activity relative to solvent control, individual replicate: 1.752% and 1.384% and 0.100% and 0.207% and 0.000% and 5.893%
[1]; dose 15 µM
  in vitro complex I activity relative to solvent control, individual replicate: 2.173% and 2.316% and 0.000% and 0.653% and 4.013%
[1]; dose 37.5 µM
  in vitro complex I activity relative to solvent control, individual replicate: 0.000% and 0.877% and 0.746% and 2.216% and 7.314%
[1]; dose 75 µM
  in vitro complex I activity relative to solvent control, individual replicate: 3.481% and 2.659% and 1.359% and 4.169% and 0.000% and 7.148%
[2]
  M. musculus: C. elegans IC50 Fold Change: 5.0
[3]
  B. taurus: C. elegans IC50 Fold Change (Complex I IC50 ~Fold Change): 5.7
L1 wild-type C. elegans; dose 0.2 µM
  KCN survival assay value relative to DMSO control, Mean: 0.996
L1 wild-type C. elegans; dose 0.4 µM
  KCN survival assay value relative to DMSO control, Mean: 0.698
L1 wild-type C. elegans; dose 0.8 µM
  KCN survival assay value relative to DMSO control, Mean: 0.289
L1 wild-type C. elegans; dose 1.6 µM
  KCN survival assay value relative to DMSO control, Mean: 0.082
L1 wild-type C. elegans; dose 3.1 µM
  KCN survival assay value relative to DMSO control, Mean: 0.0014
L1 wild-type C. elegans; dose 6.3 µM
  KCN survival assay value relative to DMSO control, Mean: 0.000
  KCN survival assay value relative to DMSO control, individual replicate: 0.000
L1 wild-type C. elegans; dose 12.5 µM
  KCN survival assay value relative to DMSO control, Mean: 0.000
  KCN survival assay value relative to DMSO control, individual replicate: 0.000
L1 wild-type C. elegans; dose 25 µM
  KCN survival assay value relative to DMSO control, Mean: 0.000
  KCN survival assay value relative to DMSO control, individual replicate: 0.000
L1 wild-type C. elegans; dose 50 µM
  KCN survival assay value relative to DMSO control, Mean: 0.000
  KCN survival assay value relative to DMSO control, individual replicate: 0.000
L1 wild-type C. elegans; dose 100 µM
  KCN survival assay value relative to DMSO control, Mean: 0.0016

## COc1cc2c(cc1OC)C(C(C)c1ccc(CC(C)C)cc1)=NCC2 (stereo not drawn) [NPD10504]
[1]; 0.125 µM
  percent (%) in vitro complex I activity relative to solvent control: 100.304% and 94.360% and 87.363%
[1]; 0.313 µM
  percent (%) in vitro complex I activity relative to solvent control: 102.145% and 93.069% and 82.299%
[1]; 1.5 µM
  percent (%) in vitro complex I activity relative to solvent control: 84.112% and 75.755% and 78.095%
[1]; 3 µM
  percent (%) in vitro complex I activity relative to solvent control: 63.002% and 56.869% and 54.489%
[1]; 7.5 µM
  percent (%) in vitro complex I activity relative to solvent control: 32.243% and 21.775% and 17.664%
[1]; 15 µM
  percent (%) in vitro complex I activity relative to solvent control: 13.403% and 18.209% and 10.130%
[1]; 37.5 µM
  percent (%) in vitro complex I activity relative to solvent control: 3.265% and 5.643% and 23.594% and 17.069%
[1]; 75 µM
  percent (%) in vitro complex I activity relative to solvent control: 2.371% and 3.940% and 26.690% and 16.321%
[2]
  M. musculus: C. elegans IC50 Fold Change: 2.9
[3]
  B. taurus: C. elegans IC50 Fold Change (Complex I IC50 ~Fold Change): 3.4

## COc1ccc(Cc2nccc3cc(OC)c(OC)cc23)cc1OC [Papaverine, reference compound]
[1]; 0.125 µM
  percent (%) in vitro complex I activity relative to solvent control: 94.687% and 82.605% and 109.027%
[1]; 0.125 µM, listed as papaverine
  percent (%) in vitro complex I activity relative to solvent control: 96.440%
[1]; 0.313 µM
  percent (%) in vitro complex I activity relative to solvent control: 83.609% and 89.316%
[1]; 0.313 µM, listed as papaverine
  percent (%) in vitro complex I activity relative to solvent control: 91.207%
[1]; 1.5 µM
  percent (%) in vitro complex I activity relative to solvent control: 86.357% and 77.276%
[1]; 1.5 µM, listed as papaverine
  percent (%) in vitro complex I activity relative to solvent control: 82.039%
[1]; 3 µM
  percent (%) in vitro complex I activity relative to solvent control: 61.202% and 62.914%
[1]; 3 µM, listed as papaverine
  percent (%) in vitro complex I activity relative to solvent control: 63.720%
[1]; 7.5 µM
  percent (%) in vitro complex I activity relative to solvent control: 36.553% and 36.203%
[1]; 7.5 µM, listed as papaverine
  percent (%) in vitro complex I activity relative to solvent control: 31.827%
[1]; 15 µM
  percent (%) in vitro complex I activity relative to solvent control: 14.878% and 34.729% and 23.907%
[1]; 15 µM, listed as papaverine
  percent (%) in vitro complex I activity relative to solvent control: 14.841%
[1]; 37.5 µM
  percent (%) in vitro complex I activity relative to solvent control: 1.550% and 14.338% and 5.935%
[1]; 37.5 µM, listed as papaverine
  percent (%) in vitro complex I activity relative to solvent control: 5.926%
[1]; 75 µM
  percent (%) in vitro complex I activity relative to solvent control: 0.000% and 16.770% and 11.020%
[1]; 75 µM, listed as papaverine
  percent (%) in vitro complex I activity relative to solvent control: 2.169%
[2]; 0.125 µM
  percent (%) in vitro complex I activity relative to solvent control: 94.907% and 90.711% and 93.003%
[2]; 0.313 µM
  percent (%) in vitro complex I activity relative to solvent control: 90.141% and 92.770% and 87.288%
[2]; 0.625 µM
  percent (%) in vitro complex I activity relative to solvent control: 89.892% and 88.846% and 87.339%
[2]; 1.5 µM
  percent (%) in vitro complex I activity relative to solvent control: 79.624% and 76.357% and 79.555%
[2]; 3 µM
  percent (%) in vitro complex I activity relative to solvent control: 64.060% and 60.591% and 64.935%
[2]; 7.5 µM
  percent (%) in vitro complex I activity relative to solvent control: 37.124% and 26.838% and 34.573%
[2]; 15 µM
  percent (%) in vitro complex I activity relative to solvent control: 19.495% and 10.432% and 12.487%
[2]; 37.5 µM
  percent (%) in vitro complex I activity relative to solvent control: 4.721% and 7.548% and 0.380% and 4.520%
[2]; 75 µM
  percent (%) in vitro complex I activity relative to solvent control: 2.064% and 3.004% and 0.000% and 0.416%
[2]
  M. musculus: C. elegans IC50 Fold Change: 1.1
[3]; 0.125 µM
  percent (%) in vitro complex I activity relative to solvent control: 95.707% and 93.819%
[3]; 0.313 µM
  percent (%) in vitro complex I activity relative to solvent control: 93.411% and 96.318%
[3]; 0.625 µM
  percent (%) in vitro complex I activity relative to solvent control: 85.649% and 91.371%
[3]; 1.5 µM
  percent (%) in vitro complex I activity relative to solvent control: 81.759% and 81.062%
[3]; 3 µM
  percent (%) in vitro complex I activity relative to solvent control: 79.268% and 83.993% and 77.320%
[3]; 15 µM
  percent (%) in vitro complex I activity relative to solvent control: 31.763% and 38.614% and 35.232%
[3]; 37.5 µM
  percent (%) in vitro complex I activity relative to solvent control: 13.885% and 17.467% and 14.372%
[3]; 75 µM
  percent (%) in vitro complex I activity relative to solvent control: 9.851% and 5.127%
[3]
  B. taurus: C. elegans IC50 Fold Change (Complex I IC50 ~Fold Change): 1.9

Source: PMC11079024, “Identification of a family of species-selective complex I inhibitors as potential anthelmintics” (Nature Communications, 2024)
